In general, Kd refers to the equilibrium constant for the complex coming apart. Read a high Kd as lower affinity.

Results on 1 compound are retold here after publication PMC3787104, “A Purine Analog Synergizes with Chloroquine (CQ) by Targeting Plasmodium falciparum Hsp90 (PfHsp90)” (PLoS ONE, 2013).

The target in experiment [1] is T1, P. falciparum Hsp90 (PfHsp90, PF07_0029) (Plasmodium falciparum, UniProt Q8IC05, R98K).
T1 construct: gene PF3D7_0708400
Kind of experiment: SPR (Biacore X), steady-state fit. Format: binding. (Surface plasmon resonance follows binding to a sensor surface in real time, without labels.)

Experiment [2] addresses P. falciparum Hsp90 (PfHsp90, PF07_0029) (Plasmodium falciparum, UniProt Q8IC05). In words: SPR (Biacore X), steady-state […] fit; also full-length ATPase inhibition IC50 […]. Format: binding. On the set-up: gene PF3D7_0708400; full length also tested in ATPase assay.

Take `CC(C)NCCCn1c(Sc2cc3c(cc2I)OCO3)nc2c(N)ncnc21` [PU-H71]: the Kd in experiment [1] was found to be 268 ± 55.7 µM; in experiment [2], 70.8 ± 0.006 µM.
